{"source": "paper PMC11356839", "about": "“The Synthesis of SNAC Phenolate Salts and the Effect on Oral Bioavailability of Semaglutide” (Molecules, 2024)", "settings": "rat, in vivo", "procedure": "All compounds are powders.\nIV solution was prepared by dissolving semaglutide in water containing disodium phosphate (0.014% w/v), propylene glycol (0.144% w/v), and phenol (0.056% w/v). The solution was diluted by 3 to reach semaglutide concentration of 0.046mg/mL and filtrated by a sterile 0.22 μm syringe filter.\nPharmacokinetic study protocol: Male Wistar rats (275–300 g, Harlan, Israel) were kept under a 12 h light/dark cycle, with free access to food and water. Animals were anesthetized, and an indwelling cannula was placed into the right jugular vein for systemic blood sampling. The cannula was tunneled beneath the skin and exteriorized at the dorsal part of the neck. The animals were transferred to individual cages to recover overnight (12–18 h). Throughout the experiments, free access to food was available 4 h post-oral administration.\nOral SNAC or salt formulations were dispersed in distilled water and then administrated by oral gavage (~1.2 mL for a rat to get semaglutide dose of 12 mg/kg). Blood samples (0.36 mL) were obtained by intravenous cannula, placed into the jugular vein. In the case of oral administration, samples were taken at 5 min pre-dose intervals and at different time points post-dose, according to the pharmacokinetic profile (no more than 10% of rat blood volume was drawn). To prevent dehydration, physiological solutions were administered, following each blood sampling. Plasma was separated by centrifugation (4000 rpm, 7 min, 4 °C) and stored at −20 °C until use.\nPlasma samples were analyzed by a developed LC-MS method for semaglutide.\nAbsolute bioavailability values and other pharmacokinetic observations were assessed by comparison to intravenous bolus of semaglutide.\nSemaglutide in plasma was performed in an Eppendorf® tube by mixing 150 μL of the plasma sample with 150 μL acetonitrile (ACN) and 15 μL of 5% formic acid (FA) and vortexed for 5 min. The tube was centrifuged at 15 °C, 6000 rpm for 6 min. Then, 160 μL of the supernatant was collected in a new tube. A second extraction was performed for the remaining precipitant by adding 60 μL of 5% FA, followed by mixing and centrifugation. Supernatant, 50 μL, was transferred into a tube. The solvent was evaporated to dryness, reconstituted with 50 μL 5% FA, and analyzed by an LC-MS system. Semaglutide standards were prepared by spiking semaglutide solutions in 5% FA into plasma to obtain final concentrations of 1–0.005 μg/mL. The same extraction procedure was performed on the standards as well.\nMS/MS analyses were determined on a Sciex (Framingham, MA, USA) QTRAP® 6500^+ mass spectrometer). […]"}
{"substance": "SNAC–choline", "values": [{"measurement": "Fabs (Absolute bioavailability)", "result": "0.113 ± 0.01", "unit": "%"}, {"measurement": "AUC0−8", "setting": "po, 12 mg/kg", "result": "2031 ± 193", "unit": "ng·h/mL"}, {"measurement": "AUC0−∞", "setting": "po, 12 mg/kg", "result": "2281 ± 197", "unit": "ng·h/mL"}, {"measurement": "Cmax", "setting": "po, 12 mg/kg", "result": "494 ± 63", "unit": "ng/mL"}]}
